Shown are actives, neighbours in structure and some others; about 0.62% of the full set was active somewhere.
miR-21 reporter: raises the signal of a miR-21 reporter; Potency, µM (doses to about 38.3 µM), inactives show top-dose reporter change, positive = more light; HeLa miR-21 FLuc reporter, luciferase, 48 h; AID 2288; 340,000 tested, under 10 active; active = well fitted rising curve with a large enough effect; inconclusive = small, poorly fitted or top-dose-only effect; inactive = no such curve, though single readings can be large or run the other way;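 further: % of control where 0% means no effect; miR-21 action dims this reporter so a rising signal means less miR-21 action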
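HeLa cells stably expressing CMV-driven firefly luciferase with a downstream miR-21 binding sequence, endogenously expressing miR-21, were treated with titrations (up to about 40uM final) for 48 hours at 37 degree Celsius. Luciferase luminescence was read after lysis.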
PINK1 modulator: PINK1 expression modulation; Potency, µM (titrated, usually from 76.6 µM), for the others: at the top dose activation (PINK1 increase), actives largely listed as activators; actives 0.2% (n = 410,000); PINK1 immunofluorescence, high-content cytometry, 24 h; active = well fitted activation curve with a large enough effect; inconclusive = small, poorly fitted or top-dose-only effect; cell line not stated here; also: potency is read from the fitted curve at half-maximal effect; % of control where 0% means no effect; nearly all actives have a fitted effect of over 65% in size
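A stable cell line was treated with compounds at 5 concentrations for 24 hours, with CCCP as control. PINK1 levels and mitochondrial localization were measured by immunofluorescence with mitochondrial, cell and nuclear markers after fixation, read by laser-scanning cytometry.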
uPA surface inh: blocks generation of uPA at the cell surface; cell surface uPA generation assay, qHTS; Potency, µM (top dose mostly 38.3 µM), without a hit: at the top dose activity change, negative = inhibition, hits mostly inhibitors; actives 0.31% (n = 330,000); AID 540303; active = well fitted inhibition curve with a large enough effect; inconclusive = small, poorly fitted or top-dose-only effect; inactive = no such curve, though single readings can be large or run the other way; tested in mouse RAW 264.7 cells; also: potency is read from the fitted curve at half-maximal effect; % is scaled to controls: 0 for no effect and ±100 for the full control effect; nearly all actives have a fitted effect of over 55% in size
IL2 activator: activates IL-2 in a cell-based reporter assay; IL-2 activation reporter assay, cell-based qHTS; stimulated with anti-CD3/CD4/CD28 beads; in transgenic mouse T cells; activation, % (series mostly up to about 46 µM); actives 0.065% (n = 360,000); in the data active = activation above about 50%; inconclusive = mostly about 30% to 49%; also: 0% is about no effect
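Screening format: compound pinned onto unstimulated transgenic mouse T cells, 60 min incubation, then anti-CD3/anti-CD4/anti-CD28 bead stimulation for 18 hours at 37 degrees C, followed by EGFP and DsRed detection.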
Epigenetic derep: regulators of epigenetic silencing causing reporter derepression in mouse cells; actives 0.2% (n = 280,000); Potency, µM (titrated, usually from 53.9 µM), for inactives: top-dose GFP activation, usual class: activators; murine LDR cells, GFP reporter derepression, 30 h; also: potency is read from the fitted curve at half-maximal effect; % of control where 0% means no effect; nearly all actives have a fitted effect of over 60% in size
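Reporter derepression read as number of fluorescent GFP-positive objects, 20-120 um in size, counted by laser-scanning cytometer. Mouse LDR line with an epigenetically silenced CMV-GFP locus; compound incubation 30 h, 37 C.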
p53 reactivation: restores transcriptional activity of mutant p53. H1299 p53-A138V BP100-luciferase reporter, luminescence, 24 h. Potency, µM (series often up to 92.2 µM), inactives show at the highest dose activity change, positive = activation, usual class: activators. actives 0.063% (n = 320,000). AID 504706; also: potency is read from the fitted curve at half-maximal effect; % of control where 0% means no effect; nearly all actives have a fitted effect of over 45% in size
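H1299 (p53-null), stable ts p53-A138V + BP100-Luc; 1000 cells/well, Opti-MEM/10% FBS; cpd 4 pt, 1:5; 24 h, 37 deg C, 5% CO2; detection reagent 10 min RT; luminescence.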
Numbers without * were called inactive; ? = inconclusive; . = not tested or not shown. Unless noted, calls follow the shape of the dose curve; as a rule, active = well fitted curve in the direction sought with a large enough effect; inconclusive = small, poorly fitted or top-dose-only effect, or another doubt; inactive = no such curve, though single readings can be large; an effect the other way counts as inactive or inconclusive.

Field names: A = miR-21 reporter; B = PINK1 modulator; C = uPA surface inh; D = IL2 activator; E = Epigenetic derep; F = p53 reactivation
COc1ccc(N=Cc2c(O)c3ccccc3n2C(C)=O)cc1
  A: -26.1% | B: 25.1µM* | C: -19.2% | D: 7.9 | E: 13.6% | F: 4.6%
Cn1c(=O)c(C=Nc2ccccc2)c(O)c2ccccc21
  A: -1.3% | B: . | C: . | D: . | E: 5.1% | F: -0.6%
COc1ccc(N=Cc2sc(O)c3ccccc23)cc1
  A: -35.1% | B: 4.2% | C: -2.3% | D: ? | E: 10µM* | F: ?
COc1ccc(CNC(=O)c2cnn(-c3ncc4c(n3)-c3ccccc3CC4)c2C)cc1OC
  A: . | B: 0.6% | C: . | D: . | E: . | F: .
CC(C)c1c(C(=O)NCCN2CCOCC2)cnn1-c1nccc(-c2cccs2)n1
  A: . | B: 0.3% | C: . | D: . | E: . | F: .
CC(C)(C)c1ccc(Cn2cnc(-c3ccc([N+](=O)[O-])cc3)c2)cc1
  A: -25.0% | B: ? | C: ? | D: -3.6 | E: 0.0% | F: 28.2µM*
O=S(=O)(Nc1cc(Cl)ccc1-n1cncn1)c1cc(Br)ccc1Br
  A: . | B: 15.8µM* | C: -15.6% | D: -0.6 | E: . | F: 16.8%
O=S(=O)(Nc1cc(Cl)ccc1-n1cncn1)c1ccccc1Cl
  A: . | B: 1.9% | C: 2.0% | D: 0.0 | E: . | F: 2.3%
O=C(NCc1nnc2n1CCN(Cc1cccc(Cl)c1)CC2)c1cccc(F)c1
  A: . | B: 2.5% | C: . | D: . | E: . | F: .
Cc1oc(-c2ccccc2NC(=O)c2cccnc2)nc1CNC(=O)C1CCCCCN1C (stereo not drawn)
  A: . | B: 0.6% | C: . | D: . | E: . | F: .
COC(=O)NC(NC(=S)Nc1ccc([N+](=O)[O-])cc1)C(Cl)(Cl)Cl (stereo not drawn)
  A: ? | B: 20µM* | C: 5.2% | D: -0.2 | E: 0.0% | F: -0.2%
O=C(NNC(=S)NC(=O)c1ccccc1Cl)c1cccc([N+](=O)[O-])c1
  A: -10.0% | B: -0.5% | C: 9.2% | D: -1.9 | E: . | F: -6.7%
O=C(NC(NC(=S)Nc1c(Cl)cccc1Cl)C(Cl)(Cl)Cl)c1cccc([N+](=O)[O-])c1 (stereo not drawn)
  A: ? | B: 28.2µM* | C: -5.1% | D: -0.7 | E: -1.9% | F: -4.5%
CCN1CCC(N[C@H]2C[C@@H](C(=O)NC)N(Cc3cccc4ccccc34)C2)CC1
  A: . | B: -0.2% | C: . | D: . | E: . | F: .
CCn1ncc(C2=NOC(C(=O)NCc3ccccc3)C2)c1C (stereo not drawn)
  A: 10.3% | B: 12.6µM* | C: . | D: 0.2 | E: 0.9% | F: 14.8%
CCCS(=O)(=O)NCc1c(C)ncc2c1CCN(C(=O)c1cccc(Cl)c1F)C2
  A: . | B: -0.2% | C: . | D: . | E: . | F: .
Cc1oc(-c2ccccc2NC(=O)C2CCCO2)nc1CNC(=O)c1[nH]c2c(C)ccc(C)c2c1C (stereo not drawn)
  A: . | B: 1.0% | C: . | D: . | E: . | F: .
CCN1/C(=C/c2ccc3cccc(C)c3[n+]2CC)Sc2ccccc21
  A: -8.5% | B: 3.98µM* | C: . | D: 54.0* | E: ? | F: 4.3%
Cc1ccc2c(c1)S/C(=C\c1cccc[n+]1C)N2CCO
  A: 19.2% | B: 1.0% | C: -5.7% | D: -0.5 | E: . | F: ?
CCN1/C(=C/C(C)=C/c2sc3ccccc3[n+]2CC)Sc2ccccc21
  A: ? | B: 4.8% | C: -14.5% | D: 0.5 | E: -1.3% | F: 6.7%
CCN1/C(=C\c2ccc3cc(C)ccc3[n+]2CC)Sc2cc(C)c(C)cc21
  A: . | B: ? | C: ? | D: 1.3 | E: 3.16µM* | F: -4.2%
CCN1/C(=C/c2ccc3cc(C)cc(C)c3[n+]2CC)Sc2cc(C)ccc21
  A: ? | B: 0.0% | C: ? | D: 1.4 | E: 15.8µM* | F: 12.8%
CCN1/C(=C/c2ccc3cc(C)ccc3[n+]2CC)Sc2ccc3sccc3c21
  A: . | B: ? | C: -3.9% | D: 13.5 | E: . | F: .
COc1ccc(CN2CCOc3ccc(CN4CCC(O)(c5cccnc5)CC4)cc3C2)cc1OC
  A: . | B: -0.5% | C: . | D: . | E: . | F: .
CC(C)(CNC(=O)c1cnn(-c2ncc3c(n2)-c2ccccc2CC3)c1C1CC1)N1CCOCC1
  A: . | B: -0.7% | C: . | D: . | E: . | F: .
Cc1ncc2c(c1CNC(=O)c1ccc3c(c1)OCO3)CCN(C(=O)c1cn3ccccc3n1)C2
  A: . | B: 0.1% | C: . | D: . | E: . | F: .
CCOc1cccc(/C=C/c2ccc3cccc(O)c3n2)c1OC
  A: -23.6% | B: 1.6% | C: -1.4% | D: 1.6 | E: . | F: 12.6µM*
CCOc1cccc(/C=C/c2ccc3cccc(O)c3n2)c1O
  A: -21.2% | B: 15.3% | C: -11.5% | D: -0.4 | E: . | F: 10µM*
Cc1cccc2c(Nc3ccc4c(c3)OCO4)nc(CN3CCC(N4CCCCC4)CC3)nc12
  A: . | B: 9.4% | C: . | D: . | E: . | F: .

Sorted by value in uPA surface inh (high to low): some entries from above
Field names: A = miR-21 reporter; B = PINK1 modulator; C = uPA surface inh; D = IL2 activator; E = Epigenetic derep; F = p53 reactivation
CCOc1cccc(/C=C/c2ccc3cccc(O)c3n2)c1OC
  A: -23.6% | B: 1.6% | C: -1.4% | D: 1.6 | E: . | F: 12.6µM*
CCN1/C(=C/c2ccc3cc(C)ccc3[n+]2CC)Sc2ccc3sccc3c21
  A: . | B: ? | C: -3.9% | D: 13.5 | E: . | F: .
CCOc1cccc(/C=C/c2ccc3cccc(O)c3n2)c1O
  A: -21.2% | B: 15.3% | C: -11.5% | D: -0.4 | E: . | F: 10µM*
